Chains of the proteins cited; added tags and fusions are not shown. Residues count along the entry.
UniProt P43354, 360-595 limits assumed: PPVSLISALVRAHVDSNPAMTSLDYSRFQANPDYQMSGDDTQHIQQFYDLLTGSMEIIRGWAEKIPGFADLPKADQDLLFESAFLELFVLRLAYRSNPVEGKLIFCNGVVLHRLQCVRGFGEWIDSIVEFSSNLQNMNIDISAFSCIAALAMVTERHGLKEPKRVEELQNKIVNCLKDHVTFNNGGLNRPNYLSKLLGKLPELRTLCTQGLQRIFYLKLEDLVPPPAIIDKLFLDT
UniProt P43354, whole entry: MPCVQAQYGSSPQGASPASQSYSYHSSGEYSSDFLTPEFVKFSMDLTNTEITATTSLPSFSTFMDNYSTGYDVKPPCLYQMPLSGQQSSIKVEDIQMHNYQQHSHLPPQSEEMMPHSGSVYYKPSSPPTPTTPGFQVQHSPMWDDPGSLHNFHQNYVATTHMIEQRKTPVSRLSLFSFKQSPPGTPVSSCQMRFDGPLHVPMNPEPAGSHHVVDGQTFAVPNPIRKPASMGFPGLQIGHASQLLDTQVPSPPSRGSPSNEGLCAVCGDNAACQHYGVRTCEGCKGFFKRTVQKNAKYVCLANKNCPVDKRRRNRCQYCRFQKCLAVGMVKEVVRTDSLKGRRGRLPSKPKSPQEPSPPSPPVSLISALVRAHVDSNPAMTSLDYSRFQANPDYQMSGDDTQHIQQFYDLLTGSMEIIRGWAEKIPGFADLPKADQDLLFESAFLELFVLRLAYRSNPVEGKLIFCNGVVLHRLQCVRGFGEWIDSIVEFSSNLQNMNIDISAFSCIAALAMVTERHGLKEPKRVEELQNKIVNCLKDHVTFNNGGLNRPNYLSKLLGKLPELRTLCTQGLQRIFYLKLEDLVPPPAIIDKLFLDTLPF

According to paper PMC10184128 (Journal of Medicinal Chemistry, 2023):

What was measured:
human Nurr1 = human Nurr1 (Homo sapiens, UniProt P43354); details: for max. activation (Nurr1): Gal4 hybrid reporter gene assay, mean ± S.E.M., n ≥ 3; for activation of Gal4-Nurr1 (hybrid assay): all compounds tested at 10 μM, n = 3
[1] = target: full-length human Nurr1 (NBRE) (Homo sapiens, UniProt P43354); details: all compounds tested at 10 μM, n = 3
[2] = test system: constitutively active nuclear receptors; details: 10 μM
[3] = test system: tyrosine hydroxylase (TH)
[4] = test system: vesicular amino acid transporter 2 (VMAT2)
COS-7 cells = details: 0.1-10 μM, 24 h

Row | SMILES | max. activation (Nurr1) (human Nurr1) | activation of Gal4-Nurr1 (hybrid assay) (human Nurr1) | activation of full-length Nurr1 (NBRE) [1] | effect on activity of ligand-independent transcriptional inducer Gal4-VP16 (Gal4-VP16) | activity on constitutively active nuclear receptors outside the NR4A family [2] | TH mRNA expression [3] | VMAT2 mRNA expression [4] | cytotoxic effects (COS-7 cells)
1 | COc1cccc(-c2ccc(NC(=O)C3=C(C(=O)O)CCC3)c(F)c2)c1 [compound 1, vidofludimus] | 0.4±0.2 μM (3.1±0.4-fold) | activated | activated | did not affect the activity | selective |  |  | 
2 | [2H]C([2H])([2H])Oc1cccc(-c2ccc(NC(=O)C3=C(C(=O)O)CCC3)c(F)c2)c1 [compound 2] | 0.079±0.001 μM (2.6±0.1-fold) | activated | activated |  |  |  |  | 
3 | C#CCOc1cccc(-c2ccc(NC(=O)C3=C(C(=O)O)CCC3)c(F)c2)c1 [compound 29, 2-[(3-Fluoro-3′-prop-2-yn-1-yloxy[1,1′-biphenyl]-4-yl)carbamoyl]cyclopent-1-ene-1-carboxylic acid] |  |  |  |  | selective | induced mRNA expression | induced mRNA expression | no cytotoxic effects
